The experiment has as its target D-dopachrome decarboxylase (Homo sapiens, UniProt P30046). Put plainly: Inhibition of wild type human DDT tautomerase activity at 100 uM relative to control.

Protein sequences, listed by entry. Tags and fused reporters are not part of them. Lines headed by an entry give the natural chain unless they say otherwise; changes in a name come on top.
UniProt P30046: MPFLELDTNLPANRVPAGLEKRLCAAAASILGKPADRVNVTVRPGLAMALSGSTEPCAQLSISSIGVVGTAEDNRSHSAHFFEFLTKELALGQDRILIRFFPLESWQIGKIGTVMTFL

Molecules are shown by their SMILES.

With `O=C(O)c1cccc(-c2cc(C(=O)O)ncc2C(=O)O)c1`, the Ratio Ki came out at 2.

The values are drawn from ChEMBL document CHEMBL6182842, “Progress in the development of macrophage migration inhibitory factor small-molecule inhibitors” (Eur J Med Chem, 2025).
